The source made the active and inactive calls. The calls are words filed in the database; no cut-off is given here.
Legend:
Rattus norvegicus = species: Rattus norvegicus; assay: Selectivity ratio, ratio of Ki for rat delta-opioid receptor to Ki for rat mu-opioid receptor
Summary of the method: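 Competition for 0.2 nM [3H]diprenorphine in membranes (20 µg protein) from C6 cells with rat MOR or DOR, or CHO cells with human KOR. 50 mM Tris-HCl pH 7.4, 1 h at room temperature, then GF/C filtration, five buffer washes, scintillation counting. Nonspecific binding set with 10 µM naloxone. Ki from logistic fit. Mean ± S.E.M., ≥3 assays in duplicate. DOR/MOR ratio taken from the Ki values.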

Protein sequences, listed by entry. Tags and fused reporters are not part of them. Lines headed by an entry give the natural chain unless they say otherwise; changes in a name come on top.
UniProt P33533, whole entry: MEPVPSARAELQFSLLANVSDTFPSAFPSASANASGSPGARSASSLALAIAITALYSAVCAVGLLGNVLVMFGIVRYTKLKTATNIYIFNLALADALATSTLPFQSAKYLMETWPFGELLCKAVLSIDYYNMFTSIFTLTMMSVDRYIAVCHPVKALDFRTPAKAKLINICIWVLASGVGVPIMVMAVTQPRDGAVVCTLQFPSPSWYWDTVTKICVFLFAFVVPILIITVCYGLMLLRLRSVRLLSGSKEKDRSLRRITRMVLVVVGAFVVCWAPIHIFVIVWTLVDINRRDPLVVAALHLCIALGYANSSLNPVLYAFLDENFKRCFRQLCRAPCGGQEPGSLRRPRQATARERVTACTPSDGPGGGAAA
UniProt P41145: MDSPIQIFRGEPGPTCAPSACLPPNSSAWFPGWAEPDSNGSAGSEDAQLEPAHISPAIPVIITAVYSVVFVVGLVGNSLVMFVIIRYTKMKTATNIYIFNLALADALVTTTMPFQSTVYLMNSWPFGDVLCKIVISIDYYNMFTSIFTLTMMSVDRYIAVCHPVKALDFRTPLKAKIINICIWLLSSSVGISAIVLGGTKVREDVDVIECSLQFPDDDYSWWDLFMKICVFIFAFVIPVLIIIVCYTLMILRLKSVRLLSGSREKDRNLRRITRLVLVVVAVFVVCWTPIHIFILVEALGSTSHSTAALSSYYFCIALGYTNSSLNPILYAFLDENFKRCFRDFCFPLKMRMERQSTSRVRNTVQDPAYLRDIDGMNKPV

[1] = target: Delta-type opioid receptor (Rattus norvegicus) (UniProt P33533); assay: Agonist activity at rat delta-opioid receptor expressed in C6 cell membrane assessed as [35S]GTPgammaS binding for 1 hr by liquid scintillation counting analysis relative to 10 uM DPDPE; assay type: functional, cell membranes
[2] = target: Kappa-type opioid receptor (Homo sapiens, UniProt P41145); assay: Agonist activity at human kappa-opioid receptor expressed in CHO cell membrane assessed as [35S]GTPgammaS binding for 1 hr by liquid scintillation counting analysis relative to 10 uM U69593; assay type: functional, cell membranes

| SMILES | Ratio Ki (Rattus norvegicus) | Activity [1] | Activity [2] |
| --- | --- | --- | --- |
| CC(=O)N1CC[C@@H](NC(=O)[C@@H](N)Cc2c(C)cc(O)cc2C)c2cc(CC3CCc4ccccc43)ccc21 (mixture of isomers) | 28 | inactive | – |
| Cc1cc(O)cc(C)c1C[C@H](N)C(=O)N[C@@H]1CCCc2ccc(Cc3ccc4ccccc4c3)cc21 | 140 | inactive | inactive |
| Cc1cc(O)cc(C)c1C[C@H](N)C(=O)N[C@@H]1CCCc2ccc(Cc3ccccc3)cc21 | 89 | inactive | inactive |
| Cc1cc(O)cc(C)c1C[C@H](N)C(=O)N[C@@H]1CCNc2ccc(CC3CCc4ccccc43)cc21 (mixture of isomers) | 136 | inactive | – |
| Cc1cc(O)cc(C)c1C[C@H](N)C(=O)N[C@@H]1CCNc2ccc(Cc3cccc4ccccc34)cc21 | 8 | – | inactive |

Source: ChEMBL document CHEMBL3632584, “Further Optimization and Evaluation of Bioavailable, Mixed-Efficacy μ-Opioid Receptor (MOR) Agonists/δ-Opioid Receptor (DOR) Antagonists: Balancing MOR and DOR Affinities” (J Med Chem, 2015)
